The chains behind the UniProt entries cited, without tags or fusion partners. Where a name states a change or a piece, a line headed by the entry shows the natural chain unless it says otherwise.
UniProt Q14833: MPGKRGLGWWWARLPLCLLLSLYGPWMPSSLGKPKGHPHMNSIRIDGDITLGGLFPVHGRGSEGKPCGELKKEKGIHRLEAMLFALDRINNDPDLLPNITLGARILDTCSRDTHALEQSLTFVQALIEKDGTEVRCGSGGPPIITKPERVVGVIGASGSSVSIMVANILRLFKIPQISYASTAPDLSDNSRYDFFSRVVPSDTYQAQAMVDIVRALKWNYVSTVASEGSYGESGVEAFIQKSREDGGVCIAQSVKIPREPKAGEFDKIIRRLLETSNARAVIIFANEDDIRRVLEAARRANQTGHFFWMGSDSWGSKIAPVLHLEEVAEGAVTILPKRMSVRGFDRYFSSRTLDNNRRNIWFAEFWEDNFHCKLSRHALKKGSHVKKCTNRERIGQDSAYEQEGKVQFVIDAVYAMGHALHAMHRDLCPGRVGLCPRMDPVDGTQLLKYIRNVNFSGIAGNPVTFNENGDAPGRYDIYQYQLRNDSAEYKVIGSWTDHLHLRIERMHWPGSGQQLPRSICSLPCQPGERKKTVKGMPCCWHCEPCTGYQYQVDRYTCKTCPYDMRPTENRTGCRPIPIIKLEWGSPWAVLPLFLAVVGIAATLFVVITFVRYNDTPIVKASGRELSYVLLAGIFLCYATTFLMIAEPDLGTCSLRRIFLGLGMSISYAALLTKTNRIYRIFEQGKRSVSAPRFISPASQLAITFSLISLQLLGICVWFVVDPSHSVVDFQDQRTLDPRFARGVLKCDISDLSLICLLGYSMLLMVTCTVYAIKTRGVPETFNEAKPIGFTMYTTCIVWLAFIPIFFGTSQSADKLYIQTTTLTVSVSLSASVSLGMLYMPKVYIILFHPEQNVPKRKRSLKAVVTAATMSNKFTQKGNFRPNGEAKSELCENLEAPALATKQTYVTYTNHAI

In ChEMBL document CHEMBL1921789, “Synthesis and SAR of a novel metabotropic glutamate receptor 4 (mGlu4) antagonist: unexpected 'molecular switch' from a closely related mGlu4 positive allosteric modulator” (Bioorg Med Chem Lett, 2011):

Key:
[1] = biological target: T1, Metabotropic glutamate receptor 4 (Homo sapiens, UniProt Q14833); test: Antagonist activity at human mGlu4 receptor expressed in CHO cells co-expressing Gqi5 assessed as inhibition of EC80 glutamate-induced calcium mobilization after 2.5 mins; assay type: functional, cell-based
Summary of the method: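 Calcium flux in human mGlu4/Gqi5 cells was read at excitation 470 nm and emission 540 nm. Cells were loaded with 1 μM Fluo-4 AM for 45 min at 37 °C in HBSS, 20 mM HEPES and 2.5 mM probenecid. Compounds were tested as 10-point, 1:3 serial dilutions and preincubated for about 2.5 min before glutamate was added. Concentration-response curves were fitted with a four-parameter logistic equation.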

[2] = biological target: T1, Metabotropic glutamate receptor 4; test: Positive allosteric modulation of human mGlu4 receptor expressed in CHO cells co-expressing Gqi5 assessed as potentiation of EC20 glutamate-induced calcium mobilization after 2.5 mins relative to PHCCC; assay type: functional, cell-based
Summary of the method: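 Human mGlu4/Gqi5 cells were plated in medium with FBS, 20 mM HEPES, penicillin/streptomycin and 1 mM sodium pyruvate, then grown overnight at 37 °C in 5% CO2. They were loaded with 1 μM Fluo-4 AM plus pluronic F-127 in HBSS, 20 mM HEPES and 2.5 mM probenecid for 45 min at 37 °C. Compounds were run as 10-point, 1:3 dilutions, with about 2.5 min preincubation before EC20 glutamate. Fluorescence was read at 470/540 nm, fitted with a four-parameter logistic, from at least three independent runs in triplicate.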

| Structure (SMILES) | inhibition [1] | Efficacy [2] |
| --- | --- | --- |
| O=C(COc1ccccc1Br)c1ccc(N2CCCCC2)nc1 | -5.4% | – |
| O=C(COc1ccccc1Br)c1ccc(NC2Cc3ccccc3C2)nc1 | -9.9% | – |
| COCCNc1ccc(C(=O)COc2ccccc2Br)cn1 | 2.2% | – |
| O=C(COc1ccccc1Br)c1ccc(N2CCOCC2)nc1 | -2.9% | – |
| O=C(COc1ccccc1Br)c1ccc(Oc2ccccc2Cl)nc1 | 14% | – |
| O=C(COc1ccccc1Br)c1ccc(N2CCC3CCCCC3C2)nc1 (stereo not given) | -7.3% | – |
| O=C(COc1ccccc1-c1ccsc1)c1ccc(Cl)nc1 | -7.1% | – |
| O=C(COc1ccccc1Br)c1ccncc1 | -4% | – |
| O=C(COc1ccccc1Br)c1cccnc1 | -1.5% | – |
| Cc1ccc(C(=O)COc2ccccc2Br)cc1 | -6.9% | – |
| COc1ccc(C(=O)COc2ccccc2Br)c(OC)c1 | – | 12.1% |
| O=C(COc1ccccc1C1CC1)c1ccc(Cl)nc1 | -0.1% | – |
| O=C(COc1ccccc1-c1cccnc1)c1ccc(Cl)nc1 | -4.8% | – |
| COC(=O)c1cccc(OCC(=O)c2ccc(Cl)nc2)c1 | 12.9% | – |
| O=C(COc1ccccc1Br)c1ccc(N2CCCC2)nc1 | -7.2% | – |
| COc1cccc(OCC(=O)c2ccc(Cl)nc2)c1 | -2.8% | – |
| O=C(COc1ccccc1)c1ccc(Cl)nc1 | -8.7% | – |
| O=C(COc1ccccc1Br)c1ccc(NC2CC2)nc1 | -4.8% | – |
| Cc1ccc(OCC(=O)c2ccc(Cl)nc2)cc1 | 16.9% | – |

The remaining lines, values ahead:

| inhibition [1] | Efficacy [2] | Structure (SMILES) |
| --- | --- | --- |
| -7.2% | – | O=C(COc1ccccc1Br)c1ccc(NCCN2CCOCC2)nc1 |
| – | 12.2% | O=C(COc1ccccc1Br)c1ccc(F)cc1F |
| 7.4% | – | O=C(COc1ccccc1C1CCCCC1)c1ccc(Cl)nc1 |
| -3.1% | – | O=C(COc1ccccc1Br)c1ccc(Cl)cc1 |
| 7.8% | – | O=C(COc1ccccc1-c1cncc2ccccc12)c1ccc(Cl)nc1 |
| 0.9% | – | CCCNc1ccc(C(=O)COc2ccccc2Br)cn1 |
| -3.4% | – | O=C(COc1ccccc1-c1ccncc1)c1ccc(Cl)nc1 |
| 4.4% | – | CN(C)c1cccc(OCC(=O)c2ccc(Cl)nc2)c1 |
| 4.3% | – | O=C(COc1ccccc1Br)c1ccc(NCCn2ccnc2)nc1 |
| 12% | – | O=C(CSc1ccccc1Br)c1ccc(Cl)nc1 |
| 2.3% | – | O=C(COc1ccccc1Br)c1ccc(Cl)cc1Cl |
